Data from PubChem BioAssay AID651724 (National Center for Advancing Translational Sciences (NCATS), 2012).
The entries are a selection whose mix differs from that of the whole data set. Calls of active or inactive are those of the source. Rule as the data show it: active = activity change below about -65%; inconclusive = mostly about -30% to -63%; inactive = weaker than that.

test system: CtBP / adenovirus E1A interaction (AlphaScreen); test: qHTS Assay for Inhibitors of the CtBP/E1A Interaction; conditions: AlphaScreen GST-E1A/His-CtBP binding, 1536-well; active compounds read low
Source text: Carboxyl-terminal binding protein (CtBP) is a co-repressor for many transcription factors. […] Our studies have shown that CtBP is overexpressed in multiple human cancers, including lung, breast, and head and neck cancers. In particular, it is over-expressed in 50% of primary lung cancer and 90% of metastatic lesions. CtBP suppresses epithelial-specific genes as well as genes critical for apoptosis, providing the underlying molecular mechanism for its role in tumorigenesis. […] Based on the above data, we hypothesize that 1) CtBP suppresses the pro-apoptotic and epithelial genes, therefore overexpressed CtBP in human cancer cells increases EMT and cancer survival; 2) decreasing CtBP's function represents a targeted therapy for lung cancer and potentially multiple cancer types. As a co-repressor, CtBP binds to E1A and other transcription factors through a conserved peptide motif to carry out its action. Inhibiting this interaction using small molecules can potentially serve as effective cancer therapeutics.
To this end, we have developed a homogenous AlphaScreen assay targeting the CtBP/E1A interaction. […]
The first step of the 5uL AlphaScreen assay is to dispense assay buffer (50 mM Tris, pH 8.0, 300 mM NaCl, 0.05% BSA, 0.02% Tween 20, 1 mM TCEP) into a Greiner 1536 white solid bottom microtiter plate (789175-F). […] The plate is read using a Perkin Elmer Envision using an AlphaScreen protocol.
% is scaled to controls: 0 for no effect and ±100 for the full control effect.

Row | SMILES | activity change
1 | CCC(=O)N(c1ccccc1)C1(COC)CCN(CCc2cccs2)CC1 | inactive: -3.2%
2 | CCC(=O)N(c1ccccc1)C1(COC)CCN(CCn2nnn(CC)c2=O)CC1 | inactive: 4.72%
